The target of this assay is Melanocyte-stimulating hormone receptor (Mus musculus, UniProt Q01727). Nature of the assay: Agonist activity at mouse MC1R expressed in HEK293 cells by CRE/beta-galactosidase reporter gene assay. It counts as functional, cell-based. Background: In a reporter assay the amount or activity of a reporter protein is the signal.

Sequences of proteins named here, by UniProt entry; tags and fusion partners are left off. A change or cut given only in a name is not applied to a line headed by its entry.
UniProt Q01727: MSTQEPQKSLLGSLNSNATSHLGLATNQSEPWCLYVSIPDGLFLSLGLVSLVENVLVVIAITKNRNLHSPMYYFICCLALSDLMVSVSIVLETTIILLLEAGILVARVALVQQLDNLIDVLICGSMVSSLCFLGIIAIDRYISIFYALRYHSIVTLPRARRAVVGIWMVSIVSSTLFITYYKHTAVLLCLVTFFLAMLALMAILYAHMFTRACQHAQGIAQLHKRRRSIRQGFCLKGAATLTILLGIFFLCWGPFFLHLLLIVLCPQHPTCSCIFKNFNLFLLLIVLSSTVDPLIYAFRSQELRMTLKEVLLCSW

Molecules are shown by their SMILES.

The term EC50 denotes the concentration giving half of the maximal effect. Low readings indicate a more potent agent, high ones a less potent agent. In the case of `CC(=O)N[C@@H](Cc1cnc[nH]1)C(=O)N[C@H](Cc1ccccc1)C(=O)N[C@@H](CCCN=C(N)N)C(=O)N[C@@H](Cc1c[nH]c2ccccc12)C(N)=O`, the EC50 came out at 112 nM.
